# Active and inactive are the calls of the source. The rule behind the calls is not given here.
# Legend:
# 17β-HSD1 (Homo sapiens) [1] = assay: Displacement of [3H]estrone human recombinant 17beta-HSD1 expressed in Escherichia coli BL21 (DE3)-RIL at 0.6 uM by scintillation counting in presence of NADPH
# 17β-HSD2 (Homo sapiens) [2] = assay: Displacement of [3H]estradiol human recombinant 17beta-HSD2 expressed in Escherichia coli BL21 (DE3)-RIL at 6 uM by scintillation counting in presence of NAD+
# 17β-HSD1 (Homo sapiens) [3] = assay: Displacement of [3H]estrone human recombinant 17beta-HSD1 expressed in Escherichia coli BL21 (DE3)-RIL at 6 uM by scintillation counting in presence of NADPH
# 17β-HSD2 (Homo sapiens) [4] = assay: Displacement of [3H]estradiol human recombinant 17beta-HSD2 expressed in Escherichia coli BL21 (DE3)-RIL at 0.6 uM by scintillation counting in presence of NAD+
inhibition (17β-HSD1 (Homo sapiens) [1]),inhibition (17β-HSD2 (Homo sapiens) [2]),inhibition (17β-HSD1 (Homo sapiens) [3]),inhibition (17β-HSD2 (Homo sapiens) [4]),Compound
26%,inactive,57%,inactive,CC(=O)c1cc2ccc(O)cc2oc1=O
8%,–,19%,–,CC(=O)c1cc2cc(Br)ccc2oc1=O
